US20160024487

Legend:
[1] = test system: Lys(Dnp)-ATNATRIPRIVGG-Lys(Abz)
[2] = test system: Lys(Dnp)-ATNATGNPRIVGG-Lys(Abz)
[3] = test system: Lys(Dnp)-ATNATPDPRIVGG-Lys(Abz)
[4] = test system: Lys(Dnp)-ATNATPLPRIVGG-Lys(Abz)
[5] = test system: Lys(Dnp)-ATNATX4X3PRIVGG-Lys(Abz), X4 = P, X3 = E
[6] = test system: Lys(Dnp)-EDSDRAIEGRIVGG-Lys(Abz)
[7] = test system: Lys(Dnp)-ATNATIRPRIVGG-Lys(Abz)
[8] = test system: Lys(Dnp)-ATNATMSPRIVGG-Lys(Abz)
[9] = test system: Lys(Dnp)-ATNATYMPRIVGG-Lys(Abz)
[10] = test system: Lys(Dnp)-ATNATYSPRIVGG-Lys(Abz)
[11] = test system: Lys(Dnp)-ATNATWRPRIVGG-Lys(Abz)
[12] = test system: Lys(Dnp)-ATNATYNPRIVGG-Lys(Abz)
[13] = test system: Lys(Dnp)-ATNATWFPRIVGG-Lys(Abz)
[14] = test system: Lys(Dnp)-ATNATSRPRIVGG-Lys(Abz)
[15] = test system: Lys(Dnp)-DFLAEGGGPRIVGG-Lys(Abz)
[16] = test system: Lys(Dnp)-ATNATX4X3PRIVGG-Lys(Abz), X4 = E, X3 = F
[17] = test system: Lys(Dnp)-ATNATNSPRIVGG-Lys(Abz)
[18] = test system: Lys(Dnp)-ATNATEFPRIVGG-Lys(Abz)
[19] = test system: Lys(Dnp)-HTHHAPLSPRIVGG-Lys(Abz)
[20] = test system: Lys(Dnp)-ATNATX4X3PRIVGG-Lys(Abz), X4 = S, X3 = Q
[21] = test system: Lys(Dnp)-ATNATQKPRIVGG-Lys(Abz)
[22] = test system: Lys(Dnp)-ATNATFGPRIVGG-Lys(Abz)
[23] = test system: Lys(Dnp)-ATNATDYPRIVGG-Lys(Abz)
[24] = test system: Lys(Dnp)-ATNATLTPRIVGG-Lys(Abz)
[25] = test system: Lys(Dnp)-ATNATVQPRIVGG-Lys(Abz)
[26] = test system: Lys(Dnp)-ATNATPGPRIVGG-Lys(Abz)
[27] = test system: Lys(Dnp)-ATNATMMPRIVGG-Lys(Abz)
[28] = test system: Lys(Dnp)-DNEEGFFSARIVGG-Lys(Abz)
[29] = test system: Lys(Dnp)-ATNATX4X3PRIVGG-Lys(Abz), X4 = N, X3 = F
[30] = test system: Lys(Dnp)-ATNATQYPRIVGG-Lys(Abz)
[31] = test system: Lys(Dnp)-ATNATGPPRIVGG-Lys(Abz)
[32] = test system: Lys(Dnp)-ATNATX4X3PRIVGG-Lys(Abz), X4 = Q, X3 = V
[33] = test system: Lys(Dnp)-ATNATATPRIVGG-Lys(Abz)
[34] = test system: Lys(Dnp)-ATNATLHPRIVGG-Lys(Abz)
[35] = test system: Lys(Dnp)-ATNATSMPRIVGG-Lys(Abz)
[36] = test system: Lys(Dnp)-ATNATGKPRIVGG-Lys(Abz)
[37] = test system: Lys(Dnp)-ATNATX4X3PRIVGG-Lys(Abz), X4 = T, X3 = E
[38] = test system: Lys(Dnp)-ATNATWYPRIVGG-Lys(Abz)
[39] = test system: Lys(Dnp)-ATNATPSPRIVGG-Lys(Abz)
[40] = test system: Lys(Dnp)-ATNATIIPRIVGG-Lys(Abz)
[41] = test system: Lys(Dnp)-ATNATX4X3PRIVGG-Lys(Abz), X4 = T, X3 = N

Substance: Human plasma purified alpha-thrombin
- FIIa kcat/KM [1]: 1000 M⁻¹ s⁻¹
- Specificity Ratio (FIIa/FXa) [1]: 1
- FIIa kcat/KM [2]: 700 M⁻¹ s⁻¹
- Specificity Ratio (FIIa/FXa) [2]: 14
- FIIa kcat/KM [3]: 2000 M⁻¹ s⁻¹
- Specificity Ratio (FIIa/FXa) [3]: 2

Substance: Human plasma purified α-thrombin
- FIIa kcat/KM [4]: 7700 M⁻¹ s⁻¹
- Specificity Ratio (FIIa/FXa) [4]: 23
- kcat/KM [4]: 7700 M⁻¹ s⁻¹
- FIIa kcat/KM [5]: 7500 M⁻¹ s⁻¹
- Specificity Ratio (FIIa/FXa) [5]: 7
- FIIa kcat/KM [6]: 0 M⁻¹ s⁻¹
- Functional Selectivity (Specificity*FIIa kcat/KM) [6]: 0
- Specificity Ratio (FIIa/FXa) [6]: 0
- FIIa kcat/KM [7]: 37000 M⁻¹ s⁻¹
- Functional Selectivity (Specificity*FIIa kcat/KM) [7]: 1.8e+06
- kcat/KM [7]: 37000 M⁻¹ s⁻¹
- FIIa kcat/KM [8]: 18000 M⁻¹ s⁻¹
- Specificity Ratio (FIIa/FXa) [8]: 33
- kcat/KM [8]: 18000 M⁻¹ s⁻¹
- FIIa kcat/KM [9]: 4300 M⁻¹ s⁻¹
- Specificity Ratio (FIIa/FXa) [9]: 27
- kcat/KM [9]: 4300 M⁻¹ s⁻¹
- FIIa kcat/KM [10]: 6500 M⁻¹ s⁻¹
- Functional Selectivity (Specificity*FIIa kcat/KM) [10]: 1e+06
- kcat/KM [10]: 6500 M⁻¹ s⁻¹
- FIIa kcat/KM [11]: 23000 M⁻¹ s⁻¹
- Functional Selectivity (Specificity*FIIa kcat/KM) [11]: 640000
- kcat/KM [11]: 23000 M⁻¹ s⁻¹
- FIIa kcat/KM [12]: 2200 M⁻¹ s⁻¹
- Specificity Ratio (FIIa/FXa) [12]: 44
- kcat/KM [12]: 2200 M⁻¹ s⁻¹
- FIIa kcat/KM [13]: 2400 M⁻¹ s⁻¹
- Specificity Ratio (FIIa/FXa) [13]: 49
- kcat/KM [13]: 2400 M⁻¹ s⁻¹
- kcat/KM [14]: 2300 M⁻¹ s⁻¹
- FIIa kcat/KM [15]: 40000 M⁻¹ s⁻¹
- Functional Selectivity (Specificity*FIIa kcat/KM) [15]: 2.8e+08
- Specificity Ratio (FIIa/FXa) [15]: 6910
- FIIa kcat/KM [16]: 870 M⁻¹ s⁻¹
- Specificity Ratio (FIIa/FXa) [16]: 63
- kcat/KM [17]: 640 M⁻¹ s⁻¹
- kcat/KM [18]: 870 M⁻¹ s⁻¹
- FIIa kcat/KM [19]: 31000 M⁻¹ s⁻¹
- Functional Selectivity (Specificity*FIIa kcat/KM) [19]: 9.5e+06
- Specificity Ratio (FIIa/FXa) [19]: 302
- kcat/KM [19]: 31000 M⁻¹ s⁻¹
- FIIa kcat/KM [20]: 1200 M⁻¹ s⁻¹
- Specificity Ratio (FIIa/FXa) [20]: 27
- FIIa kcat/KM [21]: 5300 M⁻¹ s⁻¹
- Specificity Ratio (FIIa/FXa) [21]: 108
- kcat/KM [21]: 5300 M⁻¹ s⁻¹
- FIIa kcat/KM [22]: 14000 M⁻¹ s⁻¹
- Functional Selectivity (Specificity*FIIa kcat/KM) [22]: 1.8e+06
- kcat/KM [22]: 14000 M⁻¹ s⁻¹
- kcat/KM [23]: 410 M⁻¹ s⁻¹
- FIIa kcat/KM [24]: 44000 M⁻¹ s⁻¹
- Functional Selectivity (Specificity*FIIa kcat/KM) [24]: 3.6e+06
- kcat/KM [24]: 44000 M⁻¹ s⁻¹
- FIIa kcat/KM [25]: 21000 M⁻¹ s⁻¹
- Functional Selectivity (Specificity*FIIa kcat/KM) [25]: 1.7e+06
- kcat/KM [25]: 21000 M⁻¹ s⁻¹
- FIIa kcat/KM [26]: 7200 M⁻¹ s⁻¹
- Specificity Ratio (FIIa/FXa) [26]: 71
- kcat/KM [26]: 7200 M⁻¹ s⁻¹
- FIIa kcat/KM [27]: 28000 M⁻¹ s⁻¹
- Functional Selectivity (Specificity*FIIa kcat/KM) [27]: 760000
- kcat/KM [27]: 28000 M⁻¹ s⁻¹
- FIIa kcat/KM [28]: 300 M⁻¹ s⁻¹
- Functional Selectivity (Specificity*FIIa kcat/KM) [28]: 390
- Specificity Ratio (FIIa/FXa) [28]: 1
- FIIa kcat/KM [29]: 780 M⁻¹ s⁻¹
- Specificity Ratio (FIIa/FXa) [29]: 56
- FIIa kcat/KM [30]: 4700 M⁻¹ s⁻¹
- Specificity Ratio (FIIa/FXa) [30]: 23
- kcat/KM [30]: 4700 M⁻¹ s⁻¹
- kcat/KM [31]: 430 M⁻¹ s⁻¹
- FIIa kcat/KM [32]: 5400 M⁻¹ s⁻¹
- Specificity Ratio (FIIa/FXa) [32]: 13
- FIIa kcat/KM [33]: 16000 M⁻¹ s⁻¹
- Functional Selectivity (Specificity*FIIa kcat/KM) [33]: 790000
- kcat/KM [33]: 16000 M⁻¹ s⁻¹
- FIIa kcat/KM [34]: 25000 M⁻¹ s⁻¹
- Functional Selectivity (Specificity*FIIa kcat/KM) [34]: 1.2e+06
- kcat/KM [34]: 25000 M⁻¹ s⁻¹
- kcat/KM [35]: 960 M⁻¹ s⁻¹
- kcat/KM [36]: 1200 M⁻¹ s⁻¹
- FIIa kcat/KM [37]: 700 M⁻¹ s⁻¹
- Specificity Ratio (FIIa/FXa) [37]: 47
- FIIa kcat/KM [38]: 4300 M⁻¹ s⁻¹
- Specificity Ratio (FIIa/FXa) [38]: 73
- kcat/KM [38]: 4300 M⁻¹ s⁻¹
- FIIa kcat/KM [39]: 12000 M⁻¹ s⁻¹
- Specificity Ratio (FIIa/FXa) [39]: 28
- kcat/KM [39]: 12000 M⁻¹ s⁻¹
- FIIa kcat/KM [40]: 26000 M⁻¹ s⁻¹
- Functional Selectivity (Specificity*FIIa kcat/KM) [40]: 1.4e+06
- kcat/KM [40]: 26000 M⁻¹ s⁻¹
- FIIa kcat/KM [41]: 600 M⁻¹ s⁻¹
- Specificity Ratio (FIIa/FXa) [41]: 46
